The values below are quoted from earlier work in patent US20140161785A1, “Verticillin A Inhibition of Histone Methyltransferases” (priority 2012, published 2014).

The target of the data set is T1, G9a (Homo sapiens, UniProt Q96KQ7).
T1 sequence (Q96KQ7 1-1210): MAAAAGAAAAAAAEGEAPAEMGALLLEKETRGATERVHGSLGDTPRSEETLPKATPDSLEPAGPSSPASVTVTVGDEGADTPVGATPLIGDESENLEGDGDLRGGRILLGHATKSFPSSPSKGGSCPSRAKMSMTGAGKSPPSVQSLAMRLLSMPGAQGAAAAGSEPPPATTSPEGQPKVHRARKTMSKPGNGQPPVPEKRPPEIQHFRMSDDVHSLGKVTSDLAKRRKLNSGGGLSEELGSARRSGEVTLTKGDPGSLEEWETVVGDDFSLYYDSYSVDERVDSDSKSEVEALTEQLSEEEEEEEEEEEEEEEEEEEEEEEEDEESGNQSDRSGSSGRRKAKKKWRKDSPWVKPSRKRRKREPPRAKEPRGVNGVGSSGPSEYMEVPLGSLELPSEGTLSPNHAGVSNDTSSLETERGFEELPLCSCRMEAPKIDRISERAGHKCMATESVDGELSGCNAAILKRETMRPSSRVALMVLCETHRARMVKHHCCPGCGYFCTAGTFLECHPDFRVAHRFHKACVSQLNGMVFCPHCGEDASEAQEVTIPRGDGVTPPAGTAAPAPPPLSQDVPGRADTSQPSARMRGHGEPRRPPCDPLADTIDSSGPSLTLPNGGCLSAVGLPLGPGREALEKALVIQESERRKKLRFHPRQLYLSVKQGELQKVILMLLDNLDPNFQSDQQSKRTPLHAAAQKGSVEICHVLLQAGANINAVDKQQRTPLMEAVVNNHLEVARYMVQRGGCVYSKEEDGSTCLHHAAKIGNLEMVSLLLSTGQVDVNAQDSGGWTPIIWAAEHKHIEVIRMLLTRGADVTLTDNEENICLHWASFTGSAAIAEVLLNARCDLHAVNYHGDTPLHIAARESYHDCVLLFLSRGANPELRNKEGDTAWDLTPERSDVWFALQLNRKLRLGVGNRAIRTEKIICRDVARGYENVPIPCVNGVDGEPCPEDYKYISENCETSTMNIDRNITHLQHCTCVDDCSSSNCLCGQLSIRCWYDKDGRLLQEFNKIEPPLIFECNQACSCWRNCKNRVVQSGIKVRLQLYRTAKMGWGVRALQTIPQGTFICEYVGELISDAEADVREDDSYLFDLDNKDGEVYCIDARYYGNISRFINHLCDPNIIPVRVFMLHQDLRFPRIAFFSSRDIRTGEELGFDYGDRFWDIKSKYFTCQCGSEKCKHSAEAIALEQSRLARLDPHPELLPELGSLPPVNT
The note with it: background statement; cited from earlier work.

Turning to `COc1cc2c(NC3CCN(C)CC3)nc(N3CCCN(C)CC3)nc2cc1OCCCN(C)C` [UNC0224], the IC50 is 15 nM.
